Source: paper PMC4629110 (Acta Pharmaceutica Sinica. B, 2014)

Sequences of proteins named here, by UniProt entry; tags and fusion partners are left off. Residues count along the entry.
UniProt P06276, 29-602: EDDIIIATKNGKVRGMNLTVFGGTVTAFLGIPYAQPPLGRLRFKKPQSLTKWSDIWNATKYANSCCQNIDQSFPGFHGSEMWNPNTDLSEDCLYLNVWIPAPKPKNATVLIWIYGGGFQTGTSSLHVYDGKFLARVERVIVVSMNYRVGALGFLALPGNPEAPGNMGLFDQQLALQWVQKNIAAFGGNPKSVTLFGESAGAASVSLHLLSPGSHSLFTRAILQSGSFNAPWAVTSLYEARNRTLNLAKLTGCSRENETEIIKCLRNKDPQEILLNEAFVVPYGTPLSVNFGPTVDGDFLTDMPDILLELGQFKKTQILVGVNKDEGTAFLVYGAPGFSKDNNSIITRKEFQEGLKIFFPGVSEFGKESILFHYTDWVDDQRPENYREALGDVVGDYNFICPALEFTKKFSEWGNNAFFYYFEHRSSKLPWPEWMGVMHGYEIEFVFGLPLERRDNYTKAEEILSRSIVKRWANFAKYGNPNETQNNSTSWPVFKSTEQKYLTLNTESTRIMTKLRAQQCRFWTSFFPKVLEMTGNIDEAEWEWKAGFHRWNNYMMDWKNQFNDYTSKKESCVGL

Target: BuChE (Homo sapiens, UniProt P06276)
Assay: In vitro BuChE inhibition assay
Format: biochemical

SMILES: CC(C)NP(=O)(NC(C)C)OP(=O)(NC(C)C)NC(C)C [ISO-OMPA, tetraisopropyl pyrophosphoramide]
- IC50: 2440 ± 170 nM
